These results are taken from patent US7741355B2, “Small-molecule modulators of TRP-p8 activity” (Dendreon Corporation, priority 2006, dated 2010).

Amino acid sequences for entries named in this document (tags omitted).
UniProt Q7Z2W7, whole entry T58I: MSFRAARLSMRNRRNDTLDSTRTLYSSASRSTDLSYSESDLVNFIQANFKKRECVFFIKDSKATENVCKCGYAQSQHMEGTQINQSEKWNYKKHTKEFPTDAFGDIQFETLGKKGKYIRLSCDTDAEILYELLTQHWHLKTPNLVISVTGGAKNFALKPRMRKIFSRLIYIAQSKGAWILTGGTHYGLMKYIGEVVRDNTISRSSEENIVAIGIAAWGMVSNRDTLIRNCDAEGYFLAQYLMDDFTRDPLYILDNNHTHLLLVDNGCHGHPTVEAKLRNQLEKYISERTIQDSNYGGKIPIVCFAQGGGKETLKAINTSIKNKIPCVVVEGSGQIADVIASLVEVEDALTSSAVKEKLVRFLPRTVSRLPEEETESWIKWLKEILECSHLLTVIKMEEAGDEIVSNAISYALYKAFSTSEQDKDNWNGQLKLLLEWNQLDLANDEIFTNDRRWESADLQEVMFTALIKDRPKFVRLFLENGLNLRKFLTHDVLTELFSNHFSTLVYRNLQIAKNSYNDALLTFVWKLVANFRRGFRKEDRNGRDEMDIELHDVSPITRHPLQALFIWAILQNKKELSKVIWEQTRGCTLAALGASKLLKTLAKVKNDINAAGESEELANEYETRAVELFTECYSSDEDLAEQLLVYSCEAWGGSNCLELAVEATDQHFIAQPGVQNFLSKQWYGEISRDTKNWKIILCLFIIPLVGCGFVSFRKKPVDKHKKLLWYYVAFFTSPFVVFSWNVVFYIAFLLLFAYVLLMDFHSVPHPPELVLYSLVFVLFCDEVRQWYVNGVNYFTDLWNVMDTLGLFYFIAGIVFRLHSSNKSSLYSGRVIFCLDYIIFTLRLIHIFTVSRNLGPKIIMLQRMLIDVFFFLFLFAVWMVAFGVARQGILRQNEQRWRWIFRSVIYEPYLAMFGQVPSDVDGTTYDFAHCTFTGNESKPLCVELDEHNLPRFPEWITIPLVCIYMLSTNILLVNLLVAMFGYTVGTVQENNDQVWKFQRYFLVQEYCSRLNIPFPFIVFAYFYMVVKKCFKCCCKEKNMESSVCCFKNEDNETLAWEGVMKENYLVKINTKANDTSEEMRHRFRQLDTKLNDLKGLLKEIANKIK

For one experiment, the target named is Trp-p8 (Homo sapiens, UniProt Q7Z2W7, T58I). The experiment is described as follows: ATP viability assay with CHO/Trp-p8 cells at 37° C. The text has this: (§1) Human Trp-p8 transfected CHO cells (referred to herein as CHO/Trp-p8) were generated for use in experiments of the present invention. Expression of Trp-p8 polypeptide in this transfectant and the absence of any endogenous expression in the non-transfected CHO was confirmed by western blot and immunofluorescence using a Trp-p8 specific antibody (GS2.20) as well as the calcium flux assay with Icilin (1-[2-hydroxyphenyl]-4-[3-nitrophenyl]-1,2,3,6-tetrahydropyrimidine-2-one) and menthol (2-isopropyl-5-methyl-cyclohexanol). Non-transfected CHO cells were used to establish the specificity of the effects of the compounds observed with CHO/Trp-p8.
This Example discloses an ATP viability assay suitable for screening for effective Trp-p8 agonists. The ATP viability assay described herein employs CHO cells expressing an exogenous Trp-p8 cDNA. This example further establishes that Trp-p8 agonists of the present invention are effective in decreasing the viability of Trp-p8 expressing cells.
The concentration of intracellular ATP declines very rapidly when metabolically active cells undergo necrosis and/or apoptosis. The ATP concentration and consequently the relative cell viability can be measured by established methods using commercially available reagents. In the agonist screening methodology disclosed herein, a compound that specifically decreases the viability of CHO/Trp-p8 cells is referred to as an agonist.
(§2) As a primary screen for efficacy and specificity for agonists, both the non-transfected CHO and CHO/Trp-p8 cells were exposed to 1 or 10 μM of test compounds in 1% dimethylsulfoxide (DMSO) or 1% DMSO (control) in a 96-well black walled, black-bottomed, cell-culture treated plate. DMSO was the solvent for all of the compounds tested. After 24-26 hours at 37° C., the cells were lysed and ATP concentration determined via a chemiluminescence assay using a commercially available reagent kit—Cell Titer-Glo (Promega; Madison, Wis.). […] (EC50 is defined herein as the agonist concentration at which there is a 50% reduction in relative cell viability).

The next experiment concerns Parent CHO. The experiment is described as follows: ATP viability assay with non-transfected (parent) CHO cells. The settings on record: read-out: Parent CHO EC50.
Excerpt: as §1, §2

Setting [1] is: Table 5, Formula I-E, CHO/Trp-p8 cells, 24-26 hours at 37° C., 50% reduction in relative cell viability.

The structures appear in SMILES notation. Read-outs that look alike come from different tables or passages of the source.

Turning to `CC(C)[C@@H]1CC[C@@H](C)C[C@H]1C(=O)n1c(=O)n(CCN)c2cc(C(=O)NCCOCCO)ccc21`, the EC50 on Trp-p8 (setting [1]) lay in the range of 0.021 to 0.05 µM.

On to `CCCOc1ccc2c(c1)n(CCN)c(=O)n2C(=O)[C@@H]1C[C@H](C)CC[C@H]1C(C)C`, for which the EC50 on Trp-p8 (setting [1]) was less than 0.02 µM.

As for `CC(C)[C@@H]1CC[C@@H](C)C[C@H]1C(=O)NCC(OCCN)c1ccccc1` (stereo partly shown) [Compound 30, 2-Isopropyl-5-methyl-cyclohexanecarboxylic[2-(2-amino-4-ethoxy)-2-phenyl-ethyl]-amide], the EC50 in the experiment on Parent CHO is more than 10 µM; at Trp-p8 (read-out: CHO/Trp-p8 EC50, ATP viability assay) it was 0.01 µM.
